Measurements: ChEMBL document CHEMBL1133297, “Synthesis and erythropoietin receptor binding affinities of N,N-disubstituted amino acids” (Bioorg Med Chem Lett, 2000)

Molecular target: T1, Erythropoietin receptor (Homo sapiens, UniProt P19235)
T1 sequence (P19235 whole entry): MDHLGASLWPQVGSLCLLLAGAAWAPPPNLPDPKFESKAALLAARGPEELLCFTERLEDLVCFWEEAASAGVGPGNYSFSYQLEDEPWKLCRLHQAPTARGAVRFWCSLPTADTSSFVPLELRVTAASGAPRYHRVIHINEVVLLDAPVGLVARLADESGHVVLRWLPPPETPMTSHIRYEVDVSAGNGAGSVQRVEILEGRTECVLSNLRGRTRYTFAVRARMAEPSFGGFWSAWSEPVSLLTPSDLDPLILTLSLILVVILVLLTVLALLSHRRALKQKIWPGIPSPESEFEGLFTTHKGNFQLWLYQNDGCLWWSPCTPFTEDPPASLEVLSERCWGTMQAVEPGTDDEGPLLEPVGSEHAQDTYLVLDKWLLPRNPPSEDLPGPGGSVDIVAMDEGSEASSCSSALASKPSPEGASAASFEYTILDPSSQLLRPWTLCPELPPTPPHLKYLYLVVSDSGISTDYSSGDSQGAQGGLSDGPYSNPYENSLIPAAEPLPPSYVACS
Test: Compound was evaluated for inhibition of [125I]-EPO binding to Erythropoietin receptor (EBP)

Row | IC50 [µM] | Structure (SMILES)
1 | 10 | COC(=O)[C@H](CCCCN)N(Cc1ccc(OCc2ccccc2)cc1)Cc1ccc(OCc2ccccc2)cc1
2 | 36 | O=C(O)C[C@@H](C(=O)O)N(C/C=C/c1cccc(Oc2ccccc2)c1)C/C=C/c1cccc(Oc2ccccc2)c1
3 | 75 | O=C(O)CC[C@H](C(=O)NCCOCCOCCNC(=O)[C@H](CCC(=O)O)N(Cc1ccc(OCc2ccccc2)cc1)Cc1ccc(OCc2ccccc2)cc1)N(Cc1ccc(OCc2ccccc2)cc1)Cc1ccc(OCc2ccccc2)cc1
